Numbering of substitutions follows the chain as printed.

The target in experiment [1] is HLA-DQ2.5 on IHW09023 cells loaded with 33mer gliadin peptide (human; wheat). Nature of the experiment: cell-based or functional assay.
The target of another experiment is T1, HLA-DR on Ba/F3 cells (human, UniProt P01903 26-216; P79483 30-227, limits assumed).
T1 construct: whole, on cells; also called Ba/F3-HLA-DR
The experiment in a line: FACS, Ba/F3 cells; raw MFI.

The target in the next experiment is T2, HLA-DQ2.2 on Ba/F3 cells (human, UniProt P01909 24-216, limits assumed).
T2 construct: whole, on cells; also called Ba/F3-HLA-DQ2.2
The experiment in a line: FACS, Ba/F3 cells; %MFI: IC17dK 0, DQN0139bb 100.

The target in another experiment is T3, HLA-DQ7.5 on Ba/F3 cells (human, UniProt P01909 24-216; P01920 33-230, limits assumed).
T3 construct: whole, on cells; also called Ba/F3-HLA-DQ7.5
The experiment in a line: FACS, Ba/F3 cells; %MFI: IC17dK 0, DQN0139bb 100.

The next experiment deals with T4, HLA-DQ8 on Ba/F3 cells (human, UniProt P01909 24-216; P01920 33-230, limits assumed).
T4 construct: whole, on cells; also called Ba/F3-HLA-DQ8
The experiment in a line: FACS, Ba/F3 cells; %MFI: IC17dK 0, DQN0139bb 100.

The target of a further experiment is T5, HLA-DQ2.5 on Ba/F3 cells (human, UniProt P01909 24-216, limits assumed).
T5 construct: whole, on cells; MHC class II without fused peptide; also called Ba/F3-HLA-DQ2.5
The experiment in a line: FACS, Ba/F3 cells; %MFI: IC17dK 0, DQN0139bb 100.

The target in another experiment is T6, HLA-DQ7.3 on Ba/F3 cells (human, UniProt P01909 24-216; P01920 33-230, limits assumed).
T6 construct: whole, on cells; also called Ba/F3-HLA-DQ7.3
Nature of the experiment: FACS, Ba/F3 cells; %MFI: IC17dK 0, DQN0139bb 100.

Experiment [2] concerns the target HLA-DQ2.5 on IHW09023 cells loaded with omega1/2 gliadin peptide (human; wheat). The experiment in a line: cell-based or functional assay.

B1: DQN0344H0976/L0591//DQN0385H1270/L0681-F6 (bispecific antibody)
heavy 1: QVQLVESGGGVVQPGGSLRLSCAASGFTFSSAYWMVWVRQAPGQGLEWMGAVYGGSDTTYYAKWTEGRFTISRDTSKNTLYLQMNSLRAEDTAVYYCAREPLNYYYYGELNLWGQGTLVTVSSASTKGPSVFPLAPSSKSTSGGTAALGCLVKDYFPEPVTVSWNSGALTSGVHTFPAVLKSSGLYSLSSVVTVPSSSLGTQTYICNVNHKPSNTKVDKRVEPKSCDKTHTCPPCPAPELRRGPSVFLFPPKPKDTLMISRTPEVTCVVVDVSHEDPEVKFNWYVDGVEVHNAKTKPREEQYNSTYRVVSVLTVLHQDWLNGKEYKCKVSNKALPAPIEKTISKAKGQPREPQVYTLPPSREEMTKNQVSLTCLVKGFYPSDIAVEWESNGQPENNYKTTPPYLDSDGSFFLYSKLTVDKSRWQEGNVFSCSVLHEALHAHYTREELSLSP
light 1: DIQMTQSPSSLSASVGDRVTITCQATEEIYSGLAWYQQKPGKAPKLLIYYVSTLYEGIPARFSGSGSGTDFTLTISSLEPEDFAVYYCQTYEDVSAVTFGQGTKVEIKRTVAAPSVFIFPPSDEQLKSGTAEVVCLLNNFYPREAKVQWKVDNALQSGNSEESVTEQDSKDSTYSLSSTLTLSKADYEKHKVYACEVTHQGLSSPVTKSFNRGEC
heavy 2: QVQLVESGGGVVQPGRSLRLSCAASGFTFSEWYFMSWVRQAPGKGLEWVASIDTGSGSIDYAEWVEGRFTISRDNSKNTLYLQMNSLRAEDTAVYYCARDIGIDYNFWGPGTLVTVSSASTKGPSVFPLAPSSKSTSGGTAALGCLVEDYFPEPVTVSWNSGALTSGVHTFPAVLESSGLYSLSSVVTVPSSSLGTKTYICNVNHKPSNTKVDKRVEPKSCDKTHTCPPCPAPELRRGPSVFLFPPKPKDTLMISRTPEVTCVVVDVSHEDPEVKFNWYVDGVEVHNAKTKPREEQYNSTYRVVSVLTVLHQDWLNGKEYKCKVSNKALPAPIEKTISKAKGQPREPQVYTLPPSRKEMTKNQVSLTCLVKGFYPSDIAVEWESNGQPENNYKTTPPYLDSDGSFFLYSKLTVDKSRWQQGNVFSCSVLHEALHAHYTRKELSLSP
light 2: DIQMTQSPSSLSASVGDRVTITCQTTQSISSYLNWYQQKPGQPPKLLIYYASTKAEGIPARFSGSGLGTDFTLTISSLEPEDFAVYYCHYGISKVSFGQGTKVEIKRTVAAPSVFIFPPSDEQLKSGTAKVVCLLNNFYPREAKVQWKVDNALQSGNSKESVTEQDSKDSTYSLSSTLTLSKADYEKHKVYACEVTHQGLSSPVTKSFNRGEC
For the molecule B1, the “IC50 (ng/mL), α1a gliadin TCR, 250 nM 33mer gliadin” value in experiment [1] is 0.58 ng/mL.

B2: DQN0344H1013/L0620//DQN0385H1353/L0681-F6 (bispecific antibody)
heavy 1: B1 heavy 1 with G16R, L112V
light 1: B1 light 1 with E28N, Y55A, E56Y
heavy 2: B1 heavy 2 with S30A
light 2: B1 light 2
In the case of B2, the binding result with HLA-DR on Ba/F3 cells, in the experiment with HLA-DQ2.2 on Ba/F3 cells, in the experiment with HLA-DQ7.5 on Ba/F3 cells, with HLA-DQ8 on Ba/F3 cells, with HLA-DQ2.5 on Ba/F3 cells and with HLA-DQ7.3 on Ba/F3 cells was “no binding (tested: 0.05 micro g/mL)” each time.

B3: DQN0344H1013/L0620//DQN0385H1521/L0605-F6 (bispecific antibody)
heavy 1: B1 heavy 1 with G16R, L112V
light 1: B1 light 1 with E28N, Y55A, E56Y
heavy 2: B1 heavy 2 with S30E, E31S
light 2: B1 light 2 with L67S
With B3, the “IC50 (ng/mL), ω2 gliadin TCR, 250 nM ω1/2 gliadin” value in experiment [2] turned out to be 0.19 ng/mL.

The record behind these values is patent publication US20240400693A1 (Chugai, published 2024).
